Measured values reported in patent US20200247794A1, “PHARMACOPHORES, COMPOUNDS AND METHODS HAVING APPLICATION IN THE TREATMENT OF CANCER THROUGH INHIBITION OF CYP17A1 AND CYP19A1” (MANGOSUTHU UNIVERSITY OF TECHNOLOGY, priority 2015, published 2020).

The chains behind the UniProt entries cited, without tags or fusion partners.
UniProt P11712, whole entry: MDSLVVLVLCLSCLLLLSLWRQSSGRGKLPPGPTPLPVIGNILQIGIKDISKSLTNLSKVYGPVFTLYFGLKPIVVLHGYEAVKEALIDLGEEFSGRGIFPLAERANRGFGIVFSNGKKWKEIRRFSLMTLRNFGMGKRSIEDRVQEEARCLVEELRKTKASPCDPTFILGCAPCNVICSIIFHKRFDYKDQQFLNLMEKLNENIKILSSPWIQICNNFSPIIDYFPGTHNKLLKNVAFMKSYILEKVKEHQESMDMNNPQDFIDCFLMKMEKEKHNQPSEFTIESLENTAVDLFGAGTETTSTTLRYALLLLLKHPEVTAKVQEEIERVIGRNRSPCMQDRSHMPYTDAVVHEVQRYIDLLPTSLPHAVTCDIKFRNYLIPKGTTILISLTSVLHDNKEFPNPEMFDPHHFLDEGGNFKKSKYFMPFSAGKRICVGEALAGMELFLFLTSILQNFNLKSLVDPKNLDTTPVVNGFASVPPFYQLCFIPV

Molecular target: CYP2C9 (Homo sapiens, UniProt P11712)
Experiment: biochemical

Q: How did the IC50 turn out when `Cc1nc(SC(C(=O)c2c[nH]c3ccccc23)c2ccccc2)sc1CC(N)=O` (racemic) [Compound 3, 2-(2-{[2-(1H-indol-3-yl)-2-oxo-1-phenylethyl]sulfanyl}-4-methyl-1,3-thiazol-5-yl)acetamide] was run?
A: 1500 nM
